Experimental data as given in patent US20220348569A1 (priority 2021, published 2022).

Protein sequences, listed by entry. Tags and fused reporters are not part of them.
UniProt P10632, whole entry: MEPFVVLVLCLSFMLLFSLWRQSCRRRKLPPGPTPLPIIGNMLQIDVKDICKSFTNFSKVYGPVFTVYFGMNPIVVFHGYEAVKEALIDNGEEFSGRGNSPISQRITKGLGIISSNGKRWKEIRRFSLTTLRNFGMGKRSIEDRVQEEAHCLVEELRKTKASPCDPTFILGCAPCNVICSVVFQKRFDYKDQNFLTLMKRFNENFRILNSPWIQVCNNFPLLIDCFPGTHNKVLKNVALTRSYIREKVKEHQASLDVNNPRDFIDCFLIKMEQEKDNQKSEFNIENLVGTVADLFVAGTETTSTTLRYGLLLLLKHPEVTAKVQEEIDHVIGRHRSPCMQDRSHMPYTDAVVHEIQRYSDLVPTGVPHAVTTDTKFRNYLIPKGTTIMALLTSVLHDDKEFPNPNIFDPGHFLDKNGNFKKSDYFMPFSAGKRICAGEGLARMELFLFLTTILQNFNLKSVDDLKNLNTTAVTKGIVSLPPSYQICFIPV

Target: CYP2C8 (Homo sapiens, UniProt P10632)
Conditions: 0.370 μM

How did the “% of Control Enzyme Activity (n = 1)” value turn out when `O=C(O)c1cc(-c2ccc(/C=C3\SC(=S)N(CCc4ccccc4)C3=O)o2)ccc1Cl` [Compound 1, (Z)-2-Chloro-5-(5-((4-oxo-3-phenethyl-2-thioxothiazolidin-5-ylidene)methyl)furan-2-yl)benzoic acid] was run?
Its value is 87.8%.
